Laboratory results taken from EP0498222A1, “Novel peptides” (SUMITOMO CHEMICAL COMPANY LIMITED, priority 1991, dated 1992).

Columns and labels:
[1] = tested on: last instar larvae of Pseudaletia separata; experiment: Insecticidal activity by injection; conditions: injected on day 0 of last instar; table prints 7 pmol, text 4 picomoles
[2] = tested on: last instar larvae of Spodoptera litura; experiment: Paralyzing activity by injection; conditions: 36 pmol injected on day 0 of last instar

Q: CSCC[C@@H]1NC(=O)[C@H](Cc2ccc(O)cc2)NC(=O)CNC(=O)[C@H](C)NC(=O)[C@H](C(C)C)NC(=O)[C@@H](NC(=O)CNC(=O)CNC(=O)[C@H](CO)NC(=O)[C@H](Cc2ccccc2)NC(=O)[C@H](CC(N)=O)NC(=O)[C@@H](N)CCC(=O)O)CSSC[C@@H](C(=O)N[C@@H](CCCCN)C(=O)N2CCC[C@H]2C(=O)N[C@H](C(=O)N[C@@H](Cc2ccccc2)C(=O)N[C@@H](Cc2ccc(O)cc2)C(=O)N[C@@H](CCC(N)=O)C(=O)O)[C@@H](C)O)NC(=O)[C@H](CCCNC(=N)N)NC(=O)CNC(=O)[C@H](CC(=O)O)NC(=O)[C@@H]2CCCN2C(=O)[C@H]([C@@H](C)O)NC(=O)[C@H](CCCNC(=N)N)NC1=O was tested. Which “Mortality (%) after 48 hours” value [1] did it give?
A: 100%

Q: And the “paralysis (%) after 10 min” value [2]?
A: 75.0%
